Results taken from patent publication US20200277376A1.

The chains behind the UniProt entries cited, without tags or fusion partners. Residues count along the entry.
UniProt Q15116, 25-170: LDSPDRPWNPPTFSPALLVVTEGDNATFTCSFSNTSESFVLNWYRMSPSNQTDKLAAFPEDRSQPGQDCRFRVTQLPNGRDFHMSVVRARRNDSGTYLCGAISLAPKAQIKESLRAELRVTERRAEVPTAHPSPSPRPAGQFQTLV

Key:
[1] = target: recombination human PD-1 extracellular protein (Sino Biological Inc.) (human) (UniProt Q15116); assay: competitive ELISA, plate coated with human PD-1 protein; competitor biotin-hAb21
[2] = target: recombination human PD-1 extracellular protein (Sino Biological Inc.) (human) (UniProt Q15116); assay: competitive ELISA, plate coated with human PD-1 protein; competitor biotin-Nivolumab

antagonizing/inhibiting ratio [1]: 50% | inhibiting efficiency [2]: 70%
Substance: MK3475 (Pembrolizumab) (antibody)
